Screening results deposited in PubChem BioAssay by several laboratories.
MC4R barr agon = human MC4R agonism via beta-arrestin | P32245 | U2OS MC4R beta-arrestin complementation, luminescence; percent of melanotan II response, DMSO zero | activation, % at 8.9 µM | 0.98% of 360,000 active;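 active means activation above a per-plate cutoff, the mean activation of sample wells on that plate plus 3 SD, cut at about 8% in these data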
HDAC3 inh = blocks human histone deacetylase 3; O15379; recombinant HDAC3, fluorogenic peptide/trypsin coupled, fluorescence; inhibition, % at 8.3 µM; 0.15% of 320,000 active; in the data active means inhibition above about 26%, passing the limit was not always enough
NALP1 inh = blocks the NALP1 inflammasome reconstituted in yeast. inhibition, % at 10 µM. AID 2071. 0.61% of 280,000 active. S. cerevisiae NALP1/ASC/caspase-1 growth, X-gal OD620, 72 h; in the data active means inhibition mostly above about 24%, no sharp cut-off; inactive means mostly below about 32%
ALR H2O2 inh = inhibitors of human ALR sulfhydryl oxidase, primary screen, biochemical, H2O2 detection, HRP-luminol luminescence, single point; FAD-linked sulfhydryl oxidase ALR (Homo sapiens), P55789; purified ALR, DTT oxidation; inhibition, % (concentration not given with the values); 290,000 compounds, 3.8% hits; AID 485317, 2010;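 active = mean and each replicate at 75% or more; inconclusive = only one of the two met; inactive = neither met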;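 note: stock transfer was 7.5 nL into about 7.5 µL; 0% = neutral wells and 100% = wells with inactivated enzyme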
MC4R antag cAMP = human MC4R antagonism in cAMP assay. P32245. MC4R-expressing cells, MTII-stimulated cAMP, LANCE TR-FRET. inhibition, % at 6.5 µM. 0.48% of 360,000 active. AID 540295;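 active means inhibition above its plate's cutoff, the mean of tested wells on that plate plus 3 SD, cut at about 29% in these data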;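 further: 0% = Melanotan II alone and 100% = Melanotan II plus saturating MCL0020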
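Test system: U2OS cells stably expressing human melanocortin 4 receptor (MC4R); also added: Melanotan II challenge; compound: 6.5 µM single dose; timing: 30-min compound preincubation, 1-h Melanotan II challenge, 1-h detection, room temperature; signal: Eu-cAMP/anti-cAMP TR-FRET, emission 671 nm; repeats: one well per compound, no replicates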
UUG fidelity = alters start codon recognition fidelity in yeast. S. cerevisiae UUG-firefly luciferase reporter, luminescence/redox ratio. AID 602363. activity score, % at 18.7 µM. hit rate 0.13% among 350,000;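 active = replicate mean at a twofold rise or more, about +100% in these data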;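 note: firefly luciferase made from a UUG start codon reports start codon fidelity; reporter light over untreated wells divided by growth signal over untreated wells; some hits fall short of that in this replicate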
MC4R barr ag = human MC4R beta-arrestin agonism confirmation. shares compounds with MC4R barr agon. U2OS MC4R beta-arrestin recruitment, luminescence; scaled DMSO 0%, Melanotan II 100%. activation, % at 8.9 µM. 31% of 2,400 active. AID 602192;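 active means mean activation across replicates above the hit cutoff set in the earlier primary screen, cut at about 8% in these data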
MOR DOR agonist = OPRM1-OPRD1 heterodimer agonism counter-screen | shares compounds with MC4R barr agon | U2OS PathHunter beta-arrestin, beta-gal luminescence; percent of deltorphin B response, DMSO zero | activation, % at 9.2 µM | 5.8% of 2,400 active | AID 602194;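 active means mean activation across replicates exceeds the hit threshold derived in the earlier primary screen, cut at about 18% in these data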;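 further: 100% = deltorphin B at 0.9 µM final and 0% = DMSO alone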
Active calls of the source: *; / = not tested or not shown. The list is not random: actives were taken first. Their share in the collection is about 4.2%.

mol	MC4R barr ag	MOR DOR agonist	MC4R antag cAMP	ALR H2O2 inh	UUG fidelity	HDAC3 inh	MC4R barr agon	NALP1 inh
CC(=O)Nc1cc(-c2cccc(C(=O)NCCN(C)C)c2)cn2c(-c3ccc(F)c(Cl)c3)cnc12	/	/	-4	/	-3	/	7	/
CC(=O)Nc1cc(-c2ccccc2)cn2c(-c3ccc(F)c(Cl)c3)cnc12	21*	4	-3	/	-12	/	22*	/
Cc1ccc(C2=NN3C(C2)c2ccccc2OC32C(=O)Nc3ccccc32)cc1 (stereo not drawn)	9.1*	20*	5	1	/	17	10*	0
CN1C(=O)C2(Oc3ccccc3C3CC(c4ccccc4)=NN32)c2ccccc21 (stereo not drawn)	/	/	-2	-6	-7	-1	2	11
N#C/C(=C(/O)COC(=O)CSc1ccc(Cl)cc1)c1nc2ccccc2[nH]1	-4	4	3	8	/	2	9.7*	4
Cc1c(-c2ccc(F)cc2)nc(N)c(C#N)c1-c1ccco1	3	7	3	39	-7	-8	15*	18
COc1ccc(NC(=O)c2cc(-c3ccco3)on2)c(OC)c1	1	8	11	-5	-9	-4	10*	13
COc1cc(NC(=O)c2cc(-c3ccco3)on2)c(OC)cc1Cl	/	/	3	-30	-19	-1	1	14
COc1ccc(OC)c(-c2cc(C(=O)Nc3cc(C)on3)no2)c1	10*	10	-14	3	/	-5	17*	11
CC(C)CC#Cc1ccc2c(c1)O[C@H](CN(C)C(=O)C1CCCCC1)[C@@H](C)CN([C@H](C)CO)S2(=O)=O	/	/	/	/	-21	/	/	/
O=c1c(Cl)c(N/N=C/c2ccc(Cl)cc2)cnn1-c1ccccc1	9.4*	5	3	/	/	2	18*	17
CSc1cc(-c2ccccc2)n(C)c(=O)c1C#N	1	3	-4	/	-3	3	12*	6
CSc1cc(-c2ccccc2)n(Cc2c(Cl)cccc2Cl)c(=O)c1C#N	/	/	0	4	/	1	-1	-3
Cc1ccc(C)c(N2CCN(CCCNC(=O)Cn3cccc3C(=O)c3ccccc3C)CC2)c1	14*	15	9	-16	/	4	12*	25
CO[C@H]1CN(C)C(=O)c2cc(NC(=O)Nc3cc(F)ccc3F)ccc2OC[C@@H](C)N(C(=O)c2ccccn2)C[C@H]1C	/	/	/	/	8	/	/	/
Cc1ccc(S(=O)(=O)Nc2ccc3c(c2)C(=O)N([C@@H](C)CO)C[C@H](C)[C@@H](CN(C)C(=O)Nc2c(C)noc2C)OCCCC[C@@H](C)O3)cc1	/	/	/	/	-3	/	/	/
Cc1noc(C)c1NC(=O)N(C)C[C@H]1Oc2ccc(NC(=O)Cc3cn(C)c4ccccc34)cc2CC(=O)N([C@@H](C)CO)C[C@H]1C	/	/	/	/	-1	/	/	/
O=C(O)CN1C(=O)/C(=C\c2ccccc2OCc2ccc(Cl)cc2)SC1=S	/	/	-2	58	/	5	-1	-2
O=C(O)CN1C(=O)/C(=C\c2cc(Br)ccc2OCc2ccc(Cl)cc2Cl)SC1=S	8	1	11	12	-2	1	11*	-4
C[C@@H]1CN([C@@H](C)CO)C(=O)c2cc(NS(=O)(=O)c3ccccc3)ccc2O[C@@H]1CN(C)Cc1ccc2c(c1)OCO2	/	/	/	/	-8	/	/	/
C=CCNC(=O)NC(=O)COC(=O)/C(C#N)=C/c1cc(C)n(CCC(C)C)c1C	7	10	3	-4	-19	-6	10*	3
COc1ccc(S(=O)(=O)N(C)C[C@H]2OCCCC[C@H](C)Oc3ccc(NS(=O)(=O)c4ccc(C)cc4)cc3C(=O)N([C@@H](C)CO)C[C@@H]2C)cc1	/	/	/	/	2	/	/	/
O=S(=O)(c1ccc2nc(-c3ccccc3)[nH]c2c1)N1CCN(c2cccc(Cl)c2)CC1	5	8	5	2	/	4	15*	38
COc1ccc(S(=O)(=O)N[C@@H]2CC[C@H](CC(=O)NCc3ccccc3F)O[C@H]2CO)cc1	/	/	/	/	-5	/	/	/
N#Cc1c(N)nc(-c2ccccc2)nc1-c1ccccc1	0	6	-3	-8	-15	4	13*	8
C[C@H]1CN([C@@H](C)CO)C(=O)Cc2cc(NC(=O)C3CCCCC3)ccc2O[C@H]1CN(C)CC1CC1	/	/	/	/	2	/	/	/
Cc1nn(-c2cccc(Cl)c2)c(Cl)c1/C=N/NC(=O)c1cccs1	3	9	0	-3	/	-8	25*	14
CCNC(=S)N/N=C/c1c(C)nn(-c2cccc(Cl)c2)c1Cl	2	9	9	-17	/	6	21*	24
COC(=O)c1c(NC(=O)c2cccc([N+](=O)[O-])c2)sc(C(N)=O)c1C	7	3	-10	-5	/	-3	12*	-10
CCCNC(=O)N1[C@H](C#N)[C@@H](c2ccc(/C=C/c3ccccc3)cc2)[C@H]1CO	/	/	/	/	-7	/	/	/

Entries of single compounds from above. Order of screens: MC4R barr ag	MOR DOR agonist	MC4R antag cAMP	ALR H2O2 inh	UUG fidelity	HDAC3 inh	MC4R barr agon	NALP1 inh
COC(=O)c1c(NC(=O)c2cccc([N+](=O)[O-])c2)sc(C(N)=O)c1C as listed: 7	3	-10	-5	/	-3	12*	-10
Cc1nn(-c2cccc(Cl)c2)c(Cl)c1/C=N/NC(=O)c1cccs1 as listed: 3	9	0	-3	/	-8	25*	14
CCNC(=S)N/N=C/c1c(C)nn(-c2cccc(Cl)c2)c1Cl as listed: 2	9	9	-17	/	6	21*	24
C=CCNC(=O)NC(=O)COC(=O)/C(C#N)=C/c1cc(C)n(CCC(C)C)c1C as listed: 7	10	3	-4	-19	-6	10*	3

The list continues:
mol	MC4R barr ag	MOR DOR agonist	MC4R antag cAMP	ALR H2O2 inh	UUG fidelity	HDAC3 inh	MC4R barr agon	NALP1 inh
O=C1CC(c2cc(Br)ccc2F)c2cc3c(cc2N1)CCC3 (stereo not drawn)	3	4	-22	-7	-11	0	16*	6
COc1cccc(NC(=O)N(C)C[C@H]2Oc3cc(-c4ccccc4F)ccc3S(=O)(=O)N([C@H](C)CO)C[C@H]2C)c1	/	/	/	/	-6	/	/	/
Cc1cccc(Nc2nc(N)nc(CCl)n2)c1	/	/	13	14	-11	7	5	11
Cc1cccc(Nc2nc(N)nc(CCl)n2)c1C	23*	37*	14	91*	-11	-9	25*	/
Cc1ccc(Nc2nc(N)nc(CCl)n2)cc1	17*	18*	9	7	-21	-1	14*	/
C[C@@H]1CN([C@H](C)CO)C(=O)c2cc(NS(=O)(=O)c3cn(C)cn3)ccc2O[C@@H](C)CCCCO[C@H]1CN(C)CC1CCCCC1	/	/	/	/	-19	/	/	/
O=C(Nc1ccccc1F)N[C@H]1CC[C@H](CC(=O)N2CCCCC2)O[C@H]1CO	/	/	/	/	-13	/	/	/
CCCNc1c(NS(=O)(=O)c2ccc3c(c2)CCCC3)c(=O)oc2ccccc12	3	3	6	10	7	-8	14*	14
O=C(Cc1coc2ccc3ccccc3c12)Nc1nnc(C2CC2)s1	9.5*	4	-5	/	-18	-8	27*	0
O=C(c1ccccc1NS(=O)(=O)c1cccc(C(F)(F)F)c1)N1CCc2ccccc21	1	6	16	-7	-15	2	10*	11
CCOC(=O)/C(=N\Nc1ccccc1[N+](=O)[O-])c1csc(N)n1	/	/	-6	-1	/	0	1	24
